Assay results taken from patent US20060100245A1, “Substituted biphenyl-4-carboxylic acid arylamide analogues” (Neurogen Corporation, priority 2002, published 2006).

Amino acid sequences for entries named in this document (tags omitted).
UniProt Q8NER1, whole entry: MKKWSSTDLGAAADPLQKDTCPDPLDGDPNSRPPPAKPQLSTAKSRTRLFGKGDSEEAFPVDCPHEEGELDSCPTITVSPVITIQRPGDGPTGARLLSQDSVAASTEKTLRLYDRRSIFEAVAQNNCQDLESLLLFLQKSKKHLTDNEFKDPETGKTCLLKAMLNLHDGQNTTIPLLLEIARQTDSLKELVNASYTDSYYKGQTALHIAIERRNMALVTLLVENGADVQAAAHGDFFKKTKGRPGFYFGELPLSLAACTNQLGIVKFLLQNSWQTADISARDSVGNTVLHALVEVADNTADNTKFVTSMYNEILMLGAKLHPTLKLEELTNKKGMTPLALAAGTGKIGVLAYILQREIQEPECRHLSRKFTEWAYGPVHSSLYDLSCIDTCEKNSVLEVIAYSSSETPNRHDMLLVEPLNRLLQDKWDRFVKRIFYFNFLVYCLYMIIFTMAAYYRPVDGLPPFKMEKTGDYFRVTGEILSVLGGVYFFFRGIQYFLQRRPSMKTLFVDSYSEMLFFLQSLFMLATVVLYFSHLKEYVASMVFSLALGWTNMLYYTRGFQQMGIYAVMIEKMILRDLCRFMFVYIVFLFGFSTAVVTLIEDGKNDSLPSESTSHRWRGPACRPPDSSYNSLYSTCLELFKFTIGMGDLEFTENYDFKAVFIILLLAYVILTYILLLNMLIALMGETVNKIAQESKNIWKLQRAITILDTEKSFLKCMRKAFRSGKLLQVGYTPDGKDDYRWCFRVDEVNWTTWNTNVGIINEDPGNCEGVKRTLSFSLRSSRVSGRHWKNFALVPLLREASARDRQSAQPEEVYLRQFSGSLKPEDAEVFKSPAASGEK

Target: T1, human capsaicin receptor (VR1) (Homo sapiens, UniProt Q8NER1)
T1 construct: transfected with the pBK-CMV expression construct encoding the full length human capsaicin receptor; expressed in transfected cells
Assay: Capsaicin receptor binding assay ([3H]RTX competition)
Excerpt: This Example illustrates the preparation of VR1-transfected cells and membrane preparations for use in binding assays (Example 5) and functional assays (Example 6).
A cDNA encoding full length human capsaicin receptor (SEQ ID NO: 1, 2 or 3 of U.S. Pat. No. 6,482,611) was subcloned in the plasmid pBK-CMV (Stratagene, La Jolla, Calif.) for recombinant expression in mammalian cells.
Human embryonic kidney (HEK293) cells were transfected with the pBK-CMV expression construct encoding the full length human capsaicin receptor using standard methods. The transfected cells were selected for two weeks in media containing G418 ([…]) to obtain a pool of stably transfected cells. Independent clones were isolated from this pool by limiting dilution to obtain clonal stable cell lines for use in subsequent experiments.
For radioligand binding experiments, cells were seeded in T175 cell culture flasks in media without antibiotics and grown to approximately 90% confluency. The flasks were then washed with PBS and harvested in PBS containing 5 mM EDTA. The cells were pelleted by gentle centrifugation and stored at −80° C. until assayed.
Previously frozen cells were disrupted with the aid of a tissue homogenizer in ice-cold HEPES homogenization buffer (5mM KCl 5, 5.8 mM NaCl, 0.75 mM CaCl2, 2 mM MgCl2, 320 mM sucrose, and 10 mM HEPES pH 7.4). […]

Cc1cccnc1-c1ccc(C(=O)Nc2ccc(C(C)(C)C)cc2)cc1 [Compound 414, N-(4-tert-Butyl-phenyl)-4-(3-methyl-pyridin-2-yl)-benzamide]
Ki: < 1000 nM
